## Apparent affinities of Ab-14 variants for a coronavirus HR2 peptide

Data: MIT Lincoln Laboratory AlphaSeq set, Engelhart et al. 2022, doi:10.1038/s41597-022-01779-4, as distributed in FLAb.

Target: peptide PDVDLGDISGINAS, taken from heptad repeat 2 (HR2) of SARS-CoV-2 spike.

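In library AAYL50, one, two or three CDR residues were substituted; doubles and triples were drawn at random. Affinity was read by AlphaSeq, a pooled yeast mating assay with surface-displayed partners. Binding brings cells together so that they mate, and sequencing counts the barcode pairs among the diploids. A regression on co-assayed BCL2-family reference pairs converts the normalised counts of each replicate to an apparent Kd. The assay was run in three technical replicates.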

Parent scFv Ab-14: VH joined to VL by a 15-residue (Gly4Ser)3 linker. Changes lie in the light chain CDRs alone.
VH: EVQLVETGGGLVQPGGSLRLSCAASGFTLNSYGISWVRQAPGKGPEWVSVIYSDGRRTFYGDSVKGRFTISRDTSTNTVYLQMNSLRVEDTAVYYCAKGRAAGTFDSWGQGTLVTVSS
VL: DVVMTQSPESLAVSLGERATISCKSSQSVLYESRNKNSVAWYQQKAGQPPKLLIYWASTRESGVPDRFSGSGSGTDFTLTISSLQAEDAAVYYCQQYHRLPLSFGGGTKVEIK

Changes read parent residue, position, new residue, counted from the first residue of the VL shown. This list gathers variants with a substitution at A57 (VL, numbered from residue 1). Values are apparent Kd, the geometric mean of the replicates that gave a signal; lower means stronger binding. "nd" marks a missing value. The strain was present, yet no cells mated with the target were sequenced in any replicate, which points to weak or no binding. Empty control strains, which show no peptide, gave a signal in 18% of pairings with library AAYL50; the median was 15 µM and 95% of these signals were weaker than 970 nM. No background was subtracted. For each scFv, signals with the empty controls are counted beside the result. In this assay the parent's reference entry averaged 4.4 nM; its copy inside this library read 48 nM.

changes,apparent Kd,replicates with signal,empty controls
N35H W56E A57L,2.1 nM,3/3,2/9
E32N A57R T59H,530 µM,2/3,1/9
Q27V W56K A57Y,870 nM,1/3,0/9
S25V S26Y A57F,nd,0/3,0/9
V29D A57M Y97T,nd,0/3,0/9
K24C A57E Y97I,nd,0/3,0/9
S25K A57K,9.7 µM,1/3,1/9
A57C R99D L100E,nd,0/3,4/9
Q27W S33G A57W,nd,0/3,2/9
N35K A40N A57C,nd,0/3,1/9
A57W R60Q Q95M,nd,0/3,2/9
K36R A57E S58Q,430 nM,3/3,4/9
W56C A57K,950 nM,3/3,2/9
S33H K36H A57K,63 nM,3/3,0/9
A57I R60Q Q96L,17 µM,1/3,3/9
N35R A57V Y97I,1.1 µM,3/3,2/9
S28P W56R A57H,1.8 µM,3/3,2/9
V29R A57E Q96L,51 µM,2/3,1/9
S38Y A57Q Q96F,37 µM,3/3,7/9
S33R A57I Y97H,1.3 mM,1/3,3/9
A57Y T59R E61G,26 µM,2/3,1/9
Y31E A57S T59W,4.1 nM,3/3,0/9
N35S A57W,nd,0/3,2/9
N35Q K36I A57T,14 nM,3/3,6/9
S26V S28I A57Y,nd,0/3,1/9
A57G E61M L100F,79 nM,3/3,3/9
L30P E32S A57T,10 nM,3/3,0/9
V29I A57M,81 nM,3/3,3/9
N35A V39M A57V,nd,0/3,0/9
S25E A57I,3.9 µM,3/3,2/9
L30G A57T Y97V,150 µM,1/3,1/9
Q27G S33A A57Y,nd,0/3,1/9
S26K Y31G A57T,18 nM,3/3,0/9
A57H Y97T,nd,0/3,1/9
S25W A57G T59F,nd,0/3,0/9
N35Y K36W A57E,670 nM,1/3,2/9
S28R E32H A57H,46 µM,2/3,5/9
A57H E61Q Y97G,nd,0/3,1/9
R34K A57N T59E,13 nM,3/3,1/9
A57D,9.9 nM,3/3,3/9
K24D A57Y Y97T,nd,0/3,0/9
V29E A57N S58P,nd,0/3,0/9
K24P A57L P101W,nd,0/3,0/9
Q27F A57I,66 µM,1/3,1/9
L30M K36H A57Y,2.6 µM,1/3,0/9
A57S R60G E61V,nd,0/3,4/9
K24C Y31R A57E,nd,0/3,0/9
S38D A57W R99Y,nd,0/3,0/9
A57Y R60G,130 µM,1/3,1/9